Earlier results as cited in US20080124407A1, “INHIBITING CYP3A4 INDUCTION” (UNIVERSITY OF WASHINGTON, priority 2006, published 2008).

Conditions: human volunteers; cited from earlier work

CO[C@H]1/C=C/O[C@@]2(C)Oc3c(C)c(O)c4c(O)c(c(/C=N/N5CCN(C)CC5)c(O)c4c3C2=O)NC(=O)/C(C)=C\C=C\[C@H](C)[C@H](O)[C@@H](C)[C@@H](O)[C@@H](C)[C@H](OC(C)=O)[C@@H]1C [RIF, Rifampicin]
decrease in the AUC of the plasma concentration-time curve of orally administered midazolam: 95%
